Results reported in patent publication US4695545A, “Culture and process for producing A41030 antibiotics” (Eli Lilly and Company, priority 1984, dated 1987).

Settings: mice

Row | Substance | LD50 [mg/kg] | acute toxicity [mg/kg]
1 | A41030 factor B | > 300 | > 300
2 | A41030 factor C | > 300 | > 300
